Laboratory results: patent US9588122B2, “Methods of treating cancer sensitive to anti-EGFR therapy and modifying treatment using peroxiredoxin 6 biomarker” (The Board of Trustees of the Leland Stanford Junior …, priority 2013, dated 2017)

Key:
[1] = tested on: HCC827 cells; assay: PRDX6 sandwich ELISA of cell media and lysate after treatment; conditions: for PRDX6 in cell lysates: vs vehicle
[2] = tested on: A431-ZDR tumors; assay: Gefitinib-resistant A431-ZDR xenograft model (Example 1); assay type: in vivo, mice; conditions: A431-ZDR tumors from treated animals
Excerpt: . […] . Control animals received vehicle alone (20 animals).

[3] = tested on: A431 xenografts; assay: A431 subcutaneous xenograft study (Example 2); conditions: day 15; vs vehicle, P=0.008
[4] = tested on: HCC827; assay: Dose-dependent change in panel protein levels by western blot; conditions: 16 h
[5] = tested on: A431 cells; assay: SILAC quantitative proteomics of gefitinib-treated cells; assay type: cell-based, human; conditions: domain III of EGFR extracellular domain
[6] = tested on: A431 cells; assay: PRDX6 sandwich ELISA of cell media and lysate after treatment; conditions: 100 nM vs vehicle
[7] = tested on: EGFR; conditions: cited from earlier work

In the case of `COc1cc2ncnc(Nc3ccc(F)c(Cl)c3)c2cc1OCCCN1CCOCC1` [gefitinib], the “PRDX6 level in cell media” value ([1]; 100 nM, 12 h P=0.0018, 24 h P=0.0003, 32 h P=0.0069 vs vehicle) was “increased substantially”, the “PRDX6 in cell lysates” value ([1]; 12 hours (P=0.0442) and 24 hours (P=0.016)) was “significantly higher” and the “PRDX6 in cell lysates” value ([1]; 32 hours (P=0.0129)) was “significantly lower”. For the same compound, the EGFR in tumors [2] was “down-regulated”, the “mean phospho-EGFR levels in tumor lysates” value [3] was “significantly lower” and the “BAG4 protein level change” value [4] was “N.C”. For the same compound, the “CAD17 protein level change” value [4] was “+”, the “CBFB protein level change” value [4] was “+” and the “Claudin 1 protein level change” value [4] was “N.C”. The “ELAVL-1 protein level change” value [4] was “+”, the “EpCAM protein level change” value [4] was “+” and the “HSPG2 protein level change” value [4] was “N.C”. The “PDCD4 protein level change” value [4] was “+”, the “PRDX6 protein level change” value [4] was “+” and the “QARS protein level change” value [4] was “+”. The “S100A9 protein level change” value [4] was “+”, the “SERPINE1 protein level change” value [4] was “+” and the “SNX5 protein level change” value [4] was “−”. The “TESTICAN2 protein level change” value [4] was “+”, the “TNFAIP2 protein level change” value [4] was “N.C” and the “TROP-2 protein level change” value [4] was “+”. For the same compound, the “EGFR N-linked glycosylation at N356” value [5] was “dose-dependent decrease”, the “PRDX6 level in cell media” value ([6]; 12 h P=0.025, 24 h P=0.0062, 32 h P=0.0513) was “increase was significantly greater” and the “mean PRDX6 in cell lysate” value ([6]; any time point) was “no significant difference”. For the same compound, the “phosphorylation of EGFR” value [7] was “inhibits”.
